Earlier results on 1 compound are cited in paper PMC8380238, “Structure-based virtual screening of CYP1A1 inhibitors: towards rapid tier-one assessment of potential developmental toxicants” (Archives of Toxicology, 2021).

This data set concerns human CYP1A1. Particulars: NVS_ADME_hCYP1A1; values appear to be log10; ref ToxCast; cited from earlier work.

The structures appear in SMILES notation.

In the case of `CC(C)OP(=S)(OC(C)C)SCCNS(=O)(=O)c1ccccc1`, the AC50 is -0.2589.
